ChEMBL document CHEMBL5579878, “Allosteric Activation of Protein Phosphatase 5 with Small Molecules” (J Med Chem, 2024)

Substrate: N=c1oc2cc(F)cc(F)c2cc1C(N)=S
Conditions: Homo sapiens; filed as activator; dose 60.0 µM, time 40.0 min

B1: Serine/threonine-protein phosphatase 5 (Homo sapiens), P53041 (protein)
chain: MAMAEGERTECAEPPRDEPPADGALKRAEELKTQANDYFKAKDYENAIKFYSQAIELNPSNAIYYGNRSLAYLRTECYGYALGDATRAIELDKKYIKGYYRRAASNMALGKFRAALRDYETVVKVKPHDKDAKMKYQECNKIVKQKAFERAIAGDEHKRSVVDSLDIESMTIEDEYSGPKLEDGKVTISFMKELMQWYKDQKKLHRKCAYQILVQVKEVLSKLSTLVETTLKETEKITVCGDTHGQFYDLLNIFELNGLPSETNPYIFNGDFVDRGSFSVEVILTLFGFKLLYPDHFHLLRGNHETDNMNQIYGFEGEVKAKYTAQMYELFSEVFEWLPLAQCINGKVLIMHGGLFSEDGVTLDDIRKIERNRQPPDSGPMCDLLWSDPQPQNGRSISKRGVSCQFGPDVTKAFLEENNLDYIIRSHEVKAEGYEVAHGGRCVTVFSAPNYCDQMGNKASYIHLQGSDLRPQFHQFTAVPHPNVKPMAYANTLLQLGMM
  Km: 20.1 mM
